The source of these data is ChEMBL document CHEMBL1770106 (Eur J Med Chem, 2011).

In the experiment the target is T1, Ribosyldihydronicotinamide dehydrogenase [quinone] (Homo sapiens, UniProt P16083).
T1 sequence (P16083 whole entry): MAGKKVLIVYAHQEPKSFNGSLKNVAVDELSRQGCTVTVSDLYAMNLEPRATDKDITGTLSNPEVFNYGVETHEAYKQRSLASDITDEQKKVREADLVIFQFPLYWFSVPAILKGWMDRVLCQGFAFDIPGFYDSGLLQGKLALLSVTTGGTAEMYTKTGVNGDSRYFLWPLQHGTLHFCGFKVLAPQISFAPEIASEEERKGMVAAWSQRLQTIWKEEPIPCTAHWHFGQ
The experiment is described as follows: Binding affinity to low affinity melatonin (MT3) site of quinone reductase 2.

What is called IC50 is the concentration needed to halve the response being measured. Higher therefore signals a need for much substance. As to `COC(=O)Nc1ccc2[nH]cc(CCNC(C)=O)c2c1`, the IC50 turned out to be 2.7 nM.
